Source: US20240059719A1, “GOLD COMPLEXES AS ANTICANCER AGENT” (King Saud University, priority 2023, published 2024)

System: MCF-7 breast cancer cells
Assay: Apoptosis analysis (Annexin V Live & Dead Cell Kit, flow cytometry)
Format: cell-based
Conditions: 24 hours, MCF-7 cells

Structure (SMILES): CNC(=O)c1cc(Oc2ccc(NC(=O)Nc3ccc(Cl)c(C(F)(F)F)c3)cc2)ccn1 [sorafenib]
- Induction of apoptosis (folds) (1 μM): 1.2 folds
- Induction of apoptosis (folds) (3 μM): 1.3 folds
